Molecules are shown by their SMILES. This is a selection; strong and weak results do not stand in their true shares. Inconclusive results are not listed. Where a call stands in place of a potency, no number is given. Activity calls are given as the source filed them. The call rests on the fitted dose curve; in most records, active means well fitted cell-killing curve with a large enough effect; inconclusive means small, poorly fitted or top-dose-only effect, or effect the other way; inactive means flat fitted curve, though single readings scatter.
Potency means the concentration at half of the fitted maximal effect.

A short description of the experiment: qHTS for induction of synthetic lethality in tumor cells producing 2HG: qHTS for the HT-1080-NT fibrosarcoma cell line.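 Further: NT is the 2HG producing partner of a matched IDH1 knockdown line; nearly all actives have a fitted effect of over 55% in size.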 Conditions: HT-1080-NT fibrosarcoma viability, CellTiter-Glo ATP luminescence, 48 h; series mostly up to 46.1 µM.
On to `Cc1cccc(C)c1OP(C)(N)=O` (stereo not drawn), for which the Potency entry was “inactive”. Still for that read-out and setting: for `CC(C)(C)c1ccc(OP(C)(=O)Nc2ccc(SC(F)(F)F)cc2)cc1` (stereo not drawn) the value was “inactive”; for `COc1cc(C(=O)NCC2(N3CCOCC3)CCCCC2)ccc1OCC(C)C`, “inactive”. Take `O=[N+]([O-])c1cc([N+](=O)[O-])c(Nc2cccnc2)c([N+](=O)[O-])c1`: the Potency entry was “inactive”.

Take `Cc1cc(C)cc(OP(C)(N)=O)c1` (stereo not drawn): the Potency entry is “inactive”. Still for that read-out and setting: for `COc1ccc(OP(C)(=O)Nc2cccc(F)c2)cc1` (stereo not drawn) the value was “inactive”; for `COc1ccccc1OP(C)(=O)Nc1cc(Cl)ccc1C` (stereo not drawn), “inactive”; for `Cc1ccc(NP(C)(=O)Oc2ccccc2)c(C)c1` (stereo not drawn), “inactive”. Same read-out and setting: to `COc1ccccc1OP(C)(=O)Nc1ccc(C)cc1` (stereo not drawn) belongs “inactive”.

On to `CCOC(=O)c1ccc(NP(C)(=O)Oc2ccccc2)cc1` (stereo not drawn), for which the Potency entry is “inactive”. Same read-out and setting: for `CCN(CC)CCCOC(=O)C(O)(c1ccccc1)c1ccccc1` the value was “inactive”; for `COc1ccccc1-c1ccccn1.O=[N+]([O-])c1cc([N+](=O)[O-])c(O)c([N+](=O)[O-])c1`, “inactive”; for `CP(=O)(NC(=O)Nc1ccccc1)Oc1ccccc1` (stereo not drawn), “inactive”. Still for that read-out and setting: for `CCc1ccc(OP(C)(=O)N2CCN(c3ccc([N+](=O)[O-])cc3)CC2)cc1` (stereo not drawn) the value was “inactive”. On the same count and under the same terms, for `CP(=O)(Oc1ccccc1)OC(c1ccccc1)C(F)(F)F` (stereo not drawn) the value was “inactive”; for `Cc1cccc(C)c1OP(C)(=O)Nc1ccc(SC(F)(F)F)cc1` (stereo not drawn), “inactive”; for `CP(=O)(Nc1ccc(SC(F)(F)F)cc1)Oc1ccc(Cl)cc1` (stereo not drawn), “inactive”.

As to `CP(=O)(Nc1ccccn1)Oc1ccc(Cl)cc1` (stereo not drawn), the Potency result was “inactive”. The same measure, in the same setting: for `CCOC(=O)c1ccc(NP(C)(=O)Oc2ccc(OC)cc2)cc1` (stereo not drawn) the value was “inactive”; for `O=[N+]([O-])c1cc([N+](=O)[O-])c(O)c([N+](=O)[O-])c1.c1ccc(Oc2ccncc2)cc1`, “inactive”; for `CCOP(C)(=S)SCC(=O)NC(C)C(=O)O` (stereo not drawn), “inactive”. Same read-out and setting: to `CCCCOc1ccc(C(=O)NCC2(N3CCCCC3)CCCCC2)cc1OC` belongs “inactive”; to `CP(=O)(Nc1ccccc1Br)Oc1ccccc1` (stereo not drawn), “inactive”. Same read-out and setting: to `COc1ccccc1OP(C)(=O)Nc1ccccc1` (stereo not drawn) belongs “inactive”; to `CP(=S)(Nn1cnnc1)Oc1ccccc1` (stereo not drawn), “inactive”; to `CN(C)C1(CNC(=O)c2ccc(S(C)(=O)=O)cc2)CCCCC1`, “inactive”. Regarding `CC1=C2N=C(C=C3N=C(C(C)=C4[N-][C@@](C)([C@@H]5N=C1[C@](C)(CCC(=O)NC[C@@H](C)OP(=O)([O-])O[C@H]1[C@@H](O)[C@@H](n6cnc7cc(C)c(C)cc76)O[C@@H]1CO)[C@H]5CC(N)=O)[C@@](C)(CC(N)=O)[C@@H]4CCC(N)=O)[C@@](C)(CC(N)=O)[C@@H]3CCC(N)=O)C(C)(C)[C@@H]2CCC(N)=O.[C-]#N.[Co+3]`, the Potency result was “inactive”.

Regarding `O=[N+]([O-])c1cc([N+](=O)[O-])c(Nc2nnnn2CCO)c([N+](=O)[O-])c1`, the Potency entry was “inactive”.

For `COc1ccc(-c2ccccn2)cc1.O=[N+]([O-])c1cc([N+](=O)[O-])c(O)c([N+](=O)[O-])c1`, the Potency result is “inactive”.

Take `CCCOc1ccc(NP(C)(=O)Oc2ccc(Cl)cc2)cc1` (stereo not drawn): the Potency result was “inactive”. Same read-out and setting: for `CP(=O)(Nc1ccc(SC(F)(F)F)cc1)Oc1ccccc1` (stereo not drawn) the value was active: 23.1 µM; for `COc1ccccc1OP(C)(=O)Nc1c(C)cccc1C` (stereo not drawn), “inactive”; for `CN1CCCCC1COC(=O)C1(O)c2ccccc2CCc2ccccc21` (stereo not drawn), “inactive”. The same measure, in the same setting: for `CN(Cc1cccnc1)C(=O)COc1ccc(Cl)c(Cl)c1.O=[N+]([O-])c1cc([N+](=O)[O-])c(O)c([N+](=O)[O-])c1` the value was “inactive”; for `O=[N+]([O-])c1cc([N+](=O)[O-])c(-n2nnc3ccccc32)c([N+](=O)[O-])c1`, “inactive”. On the same count and under the same terms, for `Cc1nc2ccc3ccccc3c2s1.O=[N+]([O-])c1cc([N+](=O)[O-])c(O)c([N+](=O)[O-])c1` the value was “inactive”; for `O=[N+]([O-])c1cc([N+](=O)[O-])c(-c2cnn(-c3ccccc3)c2)c([N+](=O)[O-])c1`, active: 29.1 µM; for `CCOC(=O)c1ccc(NP(C)(=O)Oc2cc(C)cc(C)c2)cc1` (stereo not drawn), “inactive”.

For `Cc1cc(C)cc(OP(C)(=O)Nc2ccc(C)cc2C)c1` (stereo not drawn), the Potency result is “inactive”. The same measure, in the same setting: for `COc1ccccc1OP(C)(=O)Nc1cccc(Br)c1` (stereo not drawn) the value was “inactive”; for `COc1cc(C(=O)NCC2(N3CCOCC3)CCCCC2)cc(Cl)c1OC(C)C`, “inactive”. The same measure, in the same setting: to `Cc1ccc(C)c(NP(C)(=O)Oc2ccccc2)c1` (stereo not drawn) belongs “inactive”. Same read-out and setting: to `Cc1cc(C)cc(OP(C)(=O)Nc2ccccn2)c1` (stereo not drawn) belongs “inactive”; to `CP(=O)(Nc1cccc(Br)c1)Oc1ccccc1` (stereo not drawn), “inactive”; to `CC1=NCCc2c1[nH]c1ccccc21.O=[N+]([O-])c1cc([N+](=O)[O-])c(O)c([N+](=O)[O-])c1`, “inactive”. As to `CCOC(=O)c1ccc(NP(C)(=O)Oc2ccc(F)cc2)cc1` (stereo not drawn), the Potency entry was “inactive”.

For the compound `COc1ccc(OP(C)(=O)Nc2ccc(SC(F)(F)F)cc2)cc1` (stereo not drawn), the Potency result is “inactive”. For the compound `CP(=O)(Nc1ccccc1)Oc1ccc(F)cc1` (stereo not drawn), the Potency result was “inactive”. As to `Cc1c([N+](=O)[O-])cc([N+](=O)[O-])c(Br)c1[N+](=O)[O-]`, the Potency entry is “inactive”. For the compound `CCN(CC)CCCOC(=O)C(O)(c1ccccc1)C1CCCCC1` (stereo not drawn), the Potency entry is “inactive”.

On to `O=C(OCCN1CCN(CCOCc2ccccc2)CC1)C(O)(c1ccccc1)c1ccccc1`, for which the Potency result is “inactive”. `CCOP(C)(=S)SCC(=O)NC(C)(CC)C(=O)O` (stereo not drawn): the Potency result was “inactive”. Same read-out and setting: for `CP(=O)(Nc1ccc(SC(F)(F)F)cc1)Oc1ccc(F)cc1` (stereo not drawn) the value was “inactive”; for `Cc1ccccc1NP(C)(=O)Nc1ccccc1C`, “inactive”. With `O=[N+]([O-])c1cc([N+](=O)[O-])c(C(F)(F)F)c([N+](=O)[O-])c1O`, the Potency entry is “inactive”.

In the case of `CP(=O)(Nc1ccc2c(c1)OCCO2)Oc1ccccc1` (stereo not drawn), the Potency entry was “inactive”. With `CN(C)CCOC(=O)C(O)(c1ccccc1)C1CCCCC1` (stereo not drawn), the Potency entry was “inactive”. On to `COc1ccc(NP(C)(=O)Oc2ccccc2OC)cc1` (stereo not drawn), for which the Potency entry is “inactive”. On the same count and under the same terms, to `COc1ccc(OP(C)(=O)Nc2cccc(Br)c2)cc1` (stereo not drawn) belongs “inactive”; to `CN(C)C1(CNC(=O)c2ccc(Cl)c(S(N)(=O)=O)c2)CCCCC1`, “inactive”.

`Cc1c(C(c2ccc3c(c2)OCO3)c2c(C)n(C)n(-c3ccccc3)c2=O)c(=O)n(-c2ccccc2)n1C.O=[N+]([O-])c1cc([N+](=O)[O-])c(O)c([N+](=O)[O-])c1`: the Potency result is “inactive”.

Regarding `O=[N+]([O-])c1ccc(OP2(=O)COCCO2)cc1` (stereo not drawn), the Potency entry is “inactive”. On the same count and under the same terms, to `CCOC(=O)c1ccc(NP(C)(=O)Oc2ccc(Cl)cc2)cc1` (stereo not drawn) belongs “inactive”; to `CP(=O)(OC12CC3CC(CC(C3)C1)C2)OC12CC3CC(CC(C3)C1)C2`, “inactive”. In the case of `Nc1ccc2c(ccc3cccnc32)n1.O=[N+]([O-])c1cc([N+](=O)[O-])c(O)c([N+](=O)[O-])c1`, the Potency entry was “inactive”. The same measure, in the same setting: for `O=C(OCCCN1CCCC1)C(O)(c1ccccc1)C1CCCCC1` (stereo not drawn) the value was “inactive”; for `COc1ccccc1OP(C)(=O)Nc1c(C)n(C)n(-c2ccccc2)c1=O` (stereo not drawn), “inactive”. Still for that read-out and setting: to `CCc1ccc(OP(C)(=O)Nc2cccnc2)cc1` (stereo not drawn) belongs “inactive”; to `CP(=O)(Oc1ccccc1)N1CCOC1=O` (stereo not drawn), “inactive”.

Turning to `COc1ccc(OP(C)(=O)Nc2ccc(Br)cc2)cc1` (stereo not drawn), the Potency result is “inactive”. Consider `CCN(CC)CC(O)COC(=O)C(O)(c1ccccc1)C1CCCCC1` (stereo not drawn), for which the Potency entry was “inactive”. Take `CN(C)C(=O)c1c([N+](=O)[O-])cc([N+](=O)[O-])cc1[N+](=O)[O-]`: the Potency entry was “inactive”.

Consider `COc1ccccc1OP(C)(=O)Nc1ccccc1Br` (stereo not drawn), for which the Potency result is “inactive”. As to `CC(C)(C)c1ccc(OP(C)(=O)O)cc1`, the activity, negative = less viability was inactive: 3.97% [at 9.24 µM].

Regarding `CP(=O)(Nc1ccc(Cl)cc1)Oc1ccc(F)cc1` (stereo not drawn), the Potency entry is “inactive”.

With `CN(C)CCOC(=O)C(O)(c1ccccc1)C1CCCC1` (stereo not drawn), the Potency entry is “inactive”. As for `COc1ccccc1OP(C)(=O)Nc1ccc(Br)cc1` (stereo not drawn), the Potency result is “inactive”. On the same count and under the same terms, for `COc1ccccc1OP(C)(=O)Nc1ccc(C)cc1C` (stereo not drawn) the value was “inactive”; for `CP(=O)(Nc1ccccn1)Oc1ccccc1` (stereo not drawn), “inactive”; for `CCc1ccc(OP(C)(=O)O)cc1`, “inactive”.

For the compound `Cc1c(NP(C)(=O)Oc2ccc(C(C)C)cc2)c(=O)n(-c2ccccc2)n1C` (stereo not drawn), the Potency result was “inactive”. Turning to `O=[N+]([O-])c1cc([N+](=O)[O-])c(Nc2ccccn2)c([N+](=O)[O-])c1`, the Potency is active: 16.4 µM. The same measure, in the same setting: for `COc1ccccc1OP(C)(=O)Nc1ccc(C)c(C)c1` (stereo not drawn) the value was “inactive”; for `COc1ccc(OP(C)(=O)Nc2ccccc2Br)cc1` (stereo not drawn), “inactive”; for `Cc1cc(C)cc(OP(C)(=O)Nc2cccc(C(F)(F)F)c2)c1` (stereo not drawn), “inactive”. On the same count and under the same terms, to `CCCCCCCCCCCCCCCC1C[N+](C)(C)CCOP(C)(=O)O1` (stereo not drawn) belongs “inactive”.

For the compound `CP(=O)(Nc1ccc(Cl)cc1Cl)Oc1ccccc1` (stereo not drawn), the Potency entry is “inactive”. Turning to `CP(=O)(OCCOc1ccccc1)OCCOc1ccccc1`, the Potency result is “inactive”.

The values above are taken from PubChem BioAssay AID686970 (National Center for Advancing Translational Sciences (NCATS), 2013).
